The values that follow come from patent US12358949B2, “Defensin fragments for use in therapy or prophylaxis” (priority 2019, dated 2025).

Each structure is given as a SMILES string.

This data set concerns human erythrocytes. The data set is described as follows: Hemolytic assay. Conditions: at 1.25 μM. The data set is classed as cell-based. How it is done: Hemolytic activity was measured after an existing protocol^13. We obtained blood from two voluntary donors (sample collection had been previously approved by the Ethical Committee of the University Hospital of Tübingen, Germany) and 1 ml blood was washed with PBS two times. Afterwards we centrifuged the blood at 1000 g and performed a 1% (v/v) blood suspension in PBS. The blood suspension was incubated with different peptide concentrations (final concentration 0.5%) for one hour at 37° C. Then the samples were centrifuged at 1000 g for 10 minutes and the supernatant was collected and measured at 414 nm. […] These experiments were carried out in duplicates.

The compound `CC[C@H](C)[C@H](NC(=O)CN)C(=O)NCC(=O)N[C@@H](C)C(=O)N[C@H](C(=O)N[C@@H](CC(C)C)C(=O)N[C@@H](CCCCN)C(=O)N[C@H](C(=O)N[C@@H](CC(C)C)C(=O)N[C@H](C(=O)N[C@H](C(=O)NCC(=O)N[C@@H](CC(C)C)C(=O)N1CCC[C@H]1C(=O)N[C@@H](C)C(=O)N[C@@H](CC(C)C)C(=O)N[C@H](C(=O)N[C@@H](CO)C(=O)N[C@@H](Cc1c[nH]c2ccccc12)C(=O)N[C@H](C(=O)N[C@@H](CCCCN)C(=O)N[C@@H](CCCNC(=N)N)C(=O)N[C@@H](CCCCN)C(=O)N[C@@H](CCCNC(=N)N)C(=O)N[C@@H](CCC(N)=O)C(=O)N[C@@H](CCC(N)=O)C(N)=O)[C@@H](C)CC)[C@@H](C)CC)[C@@H](C)O)[C@@H](C)O)C(C)C)C(C)C` [Melittin, reference compound] came in with a hemolytic effect of 80%.
